Experimental data taken from patent publication US20260124309A1, “STAT6 DEGRADERS AND USES THEREOF” (Kymera Therapeutics, Inc., priority 2023, published 2026).
Like-named read-outs stand apart in the source and are kept apart here.

The chains behind the UniProt entries cited, without tags or fusion partners. Residues count along the entry.
UniProt P42226, whole entry: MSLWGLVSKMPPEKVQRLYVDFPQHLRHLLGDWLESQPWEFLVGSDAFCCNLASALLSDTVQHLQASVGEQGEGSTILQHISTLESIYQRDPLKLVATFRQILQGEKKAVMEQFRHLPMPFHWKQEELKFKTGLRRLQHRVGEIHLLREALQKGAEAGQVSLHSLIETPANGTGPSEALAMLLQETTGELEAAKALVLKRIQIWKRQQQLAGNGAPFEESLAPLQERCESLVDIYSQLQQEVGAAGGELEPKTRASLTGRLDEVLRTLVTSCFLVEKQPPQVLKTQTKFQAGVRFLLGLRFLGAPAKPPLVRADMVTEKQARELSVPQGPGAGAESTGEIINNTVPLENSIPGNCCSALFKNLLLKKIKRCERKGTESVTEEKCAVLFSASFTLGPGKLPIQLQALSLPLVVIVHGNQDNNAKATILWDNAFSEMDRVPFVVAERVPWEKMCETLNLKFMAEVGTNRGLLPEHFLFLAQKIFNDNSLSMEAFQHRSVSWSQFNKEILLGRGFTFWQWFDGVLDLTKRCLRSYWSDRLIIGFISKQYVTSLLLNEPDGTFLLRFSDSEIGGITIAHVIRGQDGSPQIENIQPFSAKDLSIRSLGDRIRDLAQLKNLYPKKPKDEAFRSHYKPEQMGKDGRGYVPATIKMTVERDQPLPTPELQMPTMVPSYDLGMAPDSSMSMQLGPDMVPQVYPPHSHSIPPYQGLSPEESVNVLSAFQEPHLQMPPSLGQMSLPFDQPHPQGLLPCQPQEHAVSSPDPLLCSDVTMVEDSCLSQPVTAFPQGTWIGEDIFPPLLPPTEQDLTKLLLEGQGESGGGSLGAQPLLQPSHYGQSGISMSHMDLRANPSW
UniProt P42226, 123-632 limits assumed: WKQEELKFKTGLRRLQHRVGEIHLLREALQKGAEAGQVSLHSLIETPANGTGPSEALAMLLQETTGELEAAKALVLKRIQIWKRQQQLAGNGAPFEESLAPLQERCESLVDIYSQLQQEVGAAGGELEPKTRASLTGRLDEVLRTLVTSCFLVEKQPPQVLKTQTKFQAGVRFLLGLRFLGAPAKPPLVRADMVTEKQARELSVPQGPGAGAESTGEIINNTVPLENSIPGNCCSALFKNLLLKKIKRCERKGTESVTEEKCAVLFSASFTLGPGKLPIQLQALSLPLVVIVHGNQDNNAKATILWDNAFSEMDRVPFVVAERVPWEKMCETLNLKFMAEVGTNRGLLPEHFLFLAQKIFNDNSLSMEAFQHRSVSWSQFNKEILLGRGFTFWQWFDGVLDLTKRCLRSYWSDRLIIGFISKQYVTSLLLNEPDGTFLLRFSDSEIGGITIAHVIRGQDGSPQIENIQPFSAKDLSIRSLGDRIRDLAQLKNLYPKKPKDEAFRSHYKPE

Columns and labels:
[1] = target: biotinylated truncated STAT6 (123-632)-avi (Homo sapiens, UniProt P42226); assay: STAT6 HTRF binding assay; conditions: read-out: STAT6 HTRF: Average IC50, 0.15 nM biotinylated truncated STAT6 (123-632)-avi, 20 nM fluorescein-labeled probe
STAT6 = STAT6 (Homo sapiens, UniProt P42226); assay: STAT6 MSD degradation in A549 cells; conditions: for DC50: read-out: STAT6 MSD degradation DC50 (nM) 24 h
How it was run: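 A549 cells treated with a 9-point 1:3 series (top up to 10 uM) for 4 to 24 hours at 37° C., then lysed in RIPA. STAT6 quantified by sandwich MSD electrochemiluminescence immunoassay. DC50 and Dmax from four-parameter nonlinear fit, reported as letter-code bins.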

| Structure (SMILES) | IC50 ([1]; HTRF binding) | STAT6 MSD degradation Dmax % 24 h (STAT6) | DC50 (STAT6) | IC50 ([1]; 30 minutes at room temperature) |
| --- | --- | --- | --- | --- |
| COc1cc(C2CCN(c3cc(F)c(-c4cc(C5=CCCN(C(=O)CCn6cccn6)C5)c(F)c5[nH]c(C(=O)N(C)C)cc45)cc3F)CC2)c(F)cc1NC1CCC(=O)NC1=O (stereo not drawn) | 100 to 1000 nM | A (A (>90%)) | < 1 nM | – |
| CN(C(=O)c1cc2c(-c3ccc(C4CCN(c5ccc(NC6CCC(=O)NC6=O)cc5F)CC4)cc3)cc(C3=CCCN(C(=O)CCn4ccnn4)C3)c(F)c2[nH]1)C1CC1 (stereo not drawn) | < 100 nM | B (B (>70-90%)) | 1 to 10 nM | – |
| CC(=O)N1CCC=C(c2cc(-c3ccc(N4CCN(CCc5cccc6c5c(C)nn6C5CCC(=O)NC5=O)CC4)cc3OC(F)(F)F)c3cc(C(=O)N(C)C)[nH]c3c2F)C1 (stereo not drawn) | 100 to 1000 nM | A (A (>90%)) | 1 to 10 nM | – |
| Cc1nn(C2CCC(=O)NC2=O)c2cccc(N3CCC(c4ccc(-c5cc(C6=CCCN(C(=O)CCn7cccn7)C6)c(F)c6[nH]c(C(=O)N(C)C)cc56)cc4)CC3)c12 (stereo not drawn) | 100 to 1000 nM | A (A (>90%)) | 1 to 10 nM | – |
| CN(C)C(=O)c1cc2c(-c3ccc(C4CCN(c5ccc(NC6CCC(=O)NC6=O)cc5F)CC4)cc3)cc([C@@H]3CCCN(C(=O)CCn4ccnn4)C3)c(F)c2[nH]1 (stereo partly drawn) | 1000 to 10000 nM | C (C (>50-70%)) | 10 to 100 nM | – |
| CC(C)C(=O)N1CCC=C(c2cc(-c3cc(F)c(N4CCN(CCc5cccc6c5n(C)c(=O)n6C5CCC(=O)NC5=O)CC4)cc3F)c3cc(C(=O)N(C)C)[nH]c3c2F)C1 (stereo not drawn) | 100 to 1000 nM | A (A (>90%)) | 1 to 10 nM | – |
| COc1cc(N2CCN(CCc3ccc(C4CCC(=O)NC4=O)c(F)c3)CC2)ccc1-c1cc(C2=CCCN(C(=O)CCn3cccn3)C2)c(F)c2[nH]c(C(=O)N(C)C)cc12 (stereo not drawn) | < 100 nM | A (A (>90%)) | < 1 nM | – |
| COc1cc([C@H]2CC[C@H](c3ccc(-c4cc(C5=CCCN(C(=O)CCn6cccn6)C5)c(F)c5[nH]c(C(=O)N(C)C)cc45)cc3)CC2)c(F)cc1NC1CCC(=O)NC1=O (relative stereo) | 1000 to 10000 nM | B (B (>70-90%)) | 1 to 10 nM | – |
| CN(C)C(=O)c1cc2c(F)c([C@H]3CCCN(C(=O)CCn4cccn4)C3)cc(-c3ccc(N4CCN(CCc5cccc6c5n(C)c(=O)n6C5CCC(=O)NC5=O)CC4)cc3Cl)c2o1 (stereo partly drawn) | < 100 nM | B (B (>70-90%)) | < 1 nM | – |
| COc1cc(N2CCN(CCOCCOCCOCCOCCN(C(=O)[C@H]3CCCN(c4cncc5ccccc45)C3)c3ccc(=O)n(CC(=O)O)c3)CC2)ccc1-c1cc(C2=CCCN(C(=O)CCn3ccnn3)C2)c(F)c2[nH]c(C(=O)N(C)C)cc12 | < 100 nM | B (B (>70-90%)) | 100 to 1000 nM | – |
| CN(C)C(=O)c1cc2c(-c3ccc(C4CCN(c5ccc(C6CCC(=O)NC6=O)cc5F)CC4)cc3)cc([C@H]3CCCN(C(=O)CCn4cccn4)C3)c(F)c2[nH]1 (stereo partly drawn) | 100 to 1000 nM | A (A (>90%)) | 1 to 10 nM | – |
| CN(C)C(=O)c1cc2c(-c3ccc(C4CCN(c5c(F)cc(C6CCC(=O)NC6=O)cc5F)CC4)c(F)c3)cc([C@H]3CCCN(C(=O)CCn4cccn4)C3)c(F)c2[nH]1 (stereo partly drawn) | 100 to 1000 nM | A (A (>90%)) | 1 to 10 nM | – |
| COc1cc(N2CCN(CCc3cccc4c3n(C)c(=O)n4C3CCC(=O)NC3=O)CC2)ccc1-c1cc(C(=O)N(C)C)cc2sc(C3=CCCN(C(=O)CCc4nccs4)C3)nc12 (stereo not drawn) | < 100 nM | B (B (>70-90%)) | 10 to 100 nM | – |
| COc1cc(N2CCN(CCc3cccc4c3n(C)c(=O)n4C3CCC(=O)NC3=O)CC2)ccc1-c1cc(C(=O)N(C)C)cc2cc(C3=CCCN(C(=O)CCn4ccnn4)C3)[nH]c12 (stereo not drawn) | < 100 nM | A (A (>90%)) | 1 to 10 nM | – |
| CC(=O)N1CCC=C(c2cc(-c3ccc(N4CCN(CCc5cccc6c5n(C)c(=O)n6C5CCC(=O)NC5=O)CC4)cc3C(C)(F)F)c3cc(C(=O)N(C)C)[nH]c3c2F)C1 (stereo not drawn) | 100 to 1000 nM | A (A (>90%)) | < 1 nM | – |
| COc1cc(N2CCC(N3CCN(c4ccc(-c5cc(C6=CCCN(C(=O)CCn7cccn7)C6)c(F)c6[nH]c(C(=O)N(C)C)cc56)cc4)CC3)CC2)c(F)cc1NC1CCC(=O)NC1=O (stereo not drawn) | < 100 nM | A (A (>90%)) | < 1 nM | – |
| Cc1nn(C2CCC(=O)NC2=O)c2cccc(CCN3CCN(c4ccc(-c5cc(C6=CCCN(C(=O)CCn7cccn7)C6)c(F)c6sc(C(=O)N(C)C)cc56)cc4)CC3)c12 (stereo not drawn) | 100 to 1000 nM | A (A (>90%)) | 1 to 10 nM | – |
| COc1cc(N2CCN(C3CCN(c4ccc(-c5cc(C6=CCCN(C(=O)CCn7cccn7)C6)c(F)c6[nH]c(C(=O)N(C)C)cc56)c(F)c4)CC3)CC2)c(F)cc1NC1CCC(=O)NC1=O (stereo not drawn) | < 100 nM | A (A (>90%)) | < 1 nM | – |

| Structure (SMILES) | IC50 ([1]; HTRF binding) | STAT6 MSD degradation Dmax % 24 h (STAT6) | DC50 (STAT6) | IC50 ([1]; 30 minutes at room temperature) |
| --- | --- | --- | --- | --- |
| CC(=O)N1CCC[C@H](c2cc(-c3ccc(C4CCN(c5cccc6c5n(C)c(=O)n6C5CCC(=O)NC5=O)CC4)cc3C)c3cc(C(=O)N(C)C)[nH]c3c2F)C1 (stereo partly drawn) | 1000 to 10000 nM | A (A (>90%)) | < 1 nM | – |
| COc1cc(C2CCN(c3cccc4c3n(C)c(=O)n4C3CCC(=O)NC3=O)CC2)c(F)cc1-c1cc([C@H]2CCCN(C(C)=O)C2)c(F)c2[nH]c(C(=O)N(C)C)cc12 (stereo partly drawn) | 100 to 1000 nM | A (A (>90%)) | < 1 nM | – |
| Cn1c(=O)n(C2CCC(=O)NC2=O)c2cccc(N3CC(C4CCN(c5ccc(-c6cc([C@H]7CCCN(C(=O)CCn8cccn8)C7)c(F)c7[nH]c(C(=O)N8CCC8)cc67)cc5)CC4)C3)c21 (stereo partly drawn) | 1000 to 10000 nM | A (A (>90%)) | < 1 nM | – |
| CN(C)C(=O)c1cc2c(-c3ccc(C4CCN(c5cc(F)c(C6CCC(=O)NC6=O)c(F)c5)CC4)cc3)cc([C@H]3CCCN(C(=O)CCn4cccn4)C3)c(F)c2[nH]1 (stereo partly drawn) | 100 to 1000 nM | A (A (>90%)) | < 1 nM | – |
| COc1cc(N2CCN(c3cc(F)c(-c4cc(C5=CCCN(C(=O)CCn6ccnn6)C5)c(F)c5[nH]c(C(=O)N(C)C)cc45)cc3F)CC2)c(F)cc1NC1CCC(=O)NC1=O (stereo not drawn) | < 100 nM | B (B (>70-90%)) | < 1 nM | – |
| COc1cc(N2CCN(CCc3ccc(C4CCC(=O)NC4=O)c(Cl)c3)CC2)ccc1-c1cc(C2CCCN(C(C)=O)C2)c(F)c2[nH]c(C(=O)N(C)C)cc12 (stereo not drawn) | – | B (B (>70-90%)) | 10 to 100 nM | 100 to 1000 nM |
| CC(=O)N1CCC=C(c2cc(-c3ccc(C4CCN(c5cccc6c5n(C)c(=O)n6C5CCC(=O)NC5=O)CC4)cc3)c3cc(C(=O)N(C)C)[nH]c3c2F)C1 (stereo not drawn) | 1000 to 10000 nM | A (A (>90%)) | 1 to 10 nM | – |
| CC(=O)N1CCC=C(c2cc(-c3ccc(N4CCN(CCc5cccc6c5n(C)c(=O)n6C5CCC(=O)NC5=O)CC4)cc3Cl)c3cc(C(=O)N(C)C)[nH]c3c2F)C1 (stereo not drawn) | 100 to 1000 nM | A (A (>90%)) | < 1 nM | – |
| COc1cc(C2CCN(c3ccc(-c4cc(C5=CCCN(C(=O)CCn6cccn6)C5)c(F)c5[nH]c(C(=O)N(C)C)cc45)c(C4CC4)c3)CC2)c(F)cc1NC1CCC(=O)NC1=O (stereo not drawn) | < 100 nM | A (A (>90%)) | < 1 nM | – |
| CC(=O)N1CCC=C(c2cc(-c3ccc(C4CCN(c5cccc6c5n(C)c(=O)n6C5CCC(=O)NC5=O)CC4)cc3C(F)(F)F)c3cc(C(=O)N(C)C)[nH]c3c2F)C1 (stereo not drawn) | 100 to 1000 nM | B (B (>70-90%)) | < 1 nM | – |
| COc1cc([C@H]2CC[C@@H](c3ccc(-c4cc(C5=CCCN(C(=O)CCn6cccn6)C5)c(F)c5[nH]c(C(=O)N(C)C)cc45)c(F)c3)CC2)c(F)cc1NC1CCC(=O)NC1=O (stereo partly drawn) | 100 to 1000 nM | B (B (>70-90%)) | 1 to 10 nM | – |
| COc1cc(N2CC[C@H](c3ccc(-c4cc(C5=CCCN(C(=O)CCn6ccnn6)C5)c(F)c5[nH]c(C(=O)N(C)C)cc45)cc3)[C@H](F)C2)c(F)cc1NC1CCC(=O)NC1=O (stereo partly drawn) | < 100 nM | B (B (>70-90%)) | < 1 nM | – |
| CC(C)C(=O)N1CCC=C(c2cc(-c3ccc(N4CCN(CCc5cccc6c(C7CCC(=O)NC7=O)nn(C)c56)CC4)cc3OC(F)(F)F)c3cc(C(=O)N(C)C)[nH]c3c2F)C1 (stereo not drawn) | 1000 to 10000 nM | A (A (>90%)) | 1 to 10 nM | – |
| COc1cc(N2CCN(CCOCCOCCOCCN(C(=O)[C@H]3CCCN(c4cncc5ccccc45)C3)c3ccc(=O)n(CC(=O)O)c3)CC2)ccc1-c1cc(C2=CCCN(C(=O)CCn3ccnn3)C2)c(F)c2[nH]c(C(=O)N(C)C)cc12 | < 100 nM | B (B (>70-90%)) | 10 to 100 nM | – |
| COc1cc(N2CCN(CCc3cccc4c3n(C)c(=O)n4C3CCC(=O)NC3=O)CC2)ccc1-c1cc(C(=O)N(C)C)cc2cc(C3=CCCN(C(C)=O)C3)[nH]c12 (stereo not drawn) | 100 to 1000 nM | B (B (>70-90%)) | 1 to 10 nM | – |
| COc1cc(N2CCC(N3CCN(c4ccc(-c5cc([C@H]6CCCN(C(=O)CCn7cccn7)C6)c(F)c6[nH]c(C(=O)N(C)C)cc56)cc4)CC3)CC2)c(F)cc1NC1CCC(=O)NC1=O (stereo partly drawn) | < 100 nM | A (A (>90%)) | < 1 nM | – |
| Cc1nn(C2CCC(=O)NC2=O)c2cccc(CCN3CCC(c4cc(Cl)c(-c5cc([C@H]6CCCN(C(=O)CCn7cccn7)C6)c(F)c6[nH]c(C(=O)N(C)C)cc56)cc4F)CC3)c12 (stereo partly drawn) | < 100 nM | A (A (>90%)) | < 1 nM | – |
